# Laboratory results reported in US4843074A.
# Test system: carbachol-induced diarrhea
# Assay: Inhibition of carbachol-induced diarrhea in mice
# Conditions: male CF1 mice, i.p., carbachol i.p. 30 minutes after drug
smiles,measurement,value
CC1CN(CC(O)(C(=O)OC2CN3CCC2CC3)c2ccccc2)CC(C)O1 (stereo not shown),"Antag. Carbachol-ind. diarrhea, mice, ip, ED50",32.1 mg/lg
